Key:
[1] = biological target: PSMA (Homo sapiens, UniProt Q04609); assay: Determination of KD values (saturation binding on PC-3 PIP tumor cells); details: read-out: KD values, 30 min at 4 °C, 2-PMPA block for non-specific binding
Method: The KD values, indicating the PSMA-binding affinity of the radioligands, were determined using PC-3 PIP tumor cells. The cells were seeded in 48-well-plates (8 x 10^4 cells in 500 µL RPMI medium/well) allowing adhesion and growth overnight. During the experiment, well plates were kept on ice. After removal of the supernatant, the cells were washed once with ice-cold PBS (pH 7.4) before addition of different concentrations (1‒2000 nM) of the radiolabeled PSMA ligands (5 MBq/nmol) in ice-cold RPMI medium without supplements. Some of the PC-3 PIP tumor cell samples were co-incubated with 2-phosphonomethyl pentanedioic acid (2-PMPA, 200 μM) to block PSMA enabling the determination of non-specific binding. After incubation of the well-plates for 30 min at 4 °C, the supernatants were removed and the cells washed twice with ice-cold PBS. The cells were lysed (NaOH, 1 M, 600 µL) and transferred to 4 mL tubes for counting the activity in a γ-counter (Wallac Wizard 1480, Perkin Elmer). The KD values were determined by plotting specific binding (total binding minus unspecific binding determined with blocking agent) against the molar concentration of the added radioligands. […] Statistical significance was assessed using a one-way ANOVA with a Tukeys's multiple comparison post-test in GraphPad Prism software (version 7). […]

Amino acid sequences for entries named in this document (tags omitted).
UniProt Q04609, whole entry: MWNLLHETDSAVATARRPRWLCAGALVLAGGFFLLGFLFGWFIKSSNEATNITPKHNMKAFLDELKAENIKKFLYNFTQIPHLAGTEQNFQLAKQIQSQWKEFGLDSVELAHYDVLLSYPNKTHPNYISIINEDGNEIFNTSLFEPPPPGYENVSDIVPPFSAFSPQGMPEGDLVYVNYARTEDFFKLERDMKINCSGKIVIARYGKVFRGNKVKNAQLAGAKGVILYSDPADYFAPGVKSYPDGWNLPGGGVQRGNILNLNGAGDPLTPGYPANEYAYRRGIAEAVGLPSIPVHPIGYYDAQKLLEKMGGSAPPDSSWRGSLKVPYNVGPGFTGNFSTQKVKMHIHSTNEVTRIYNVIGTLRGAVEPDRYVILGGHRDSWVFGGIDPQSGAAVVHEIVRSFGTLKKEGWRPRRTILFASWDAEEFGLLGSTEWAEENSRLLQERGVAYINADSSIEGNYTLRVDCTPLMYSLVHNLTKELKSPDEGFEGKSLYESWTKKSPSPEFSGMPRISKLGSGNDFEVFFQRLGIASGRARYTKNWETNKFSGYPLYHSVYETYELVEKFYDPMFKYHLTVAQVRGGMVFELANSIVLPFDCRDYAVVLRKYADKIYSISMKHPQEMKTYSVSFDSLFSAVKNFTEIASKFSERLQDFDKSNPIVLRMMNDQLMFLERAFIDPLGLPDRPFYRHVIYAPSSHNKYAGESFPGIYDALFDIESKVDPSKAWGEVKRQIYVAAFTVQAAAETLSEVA

[2] = test system: mouse plasma proteins; assay: Ultrafiltration assay, binding to mouse plasma proteins; details: 37 °C, 30 min
Method: (§1) Plasma protein-binding properties of ^177Lu-Ibu-PSMA, ^177Lu-Ibu-Dα-PSMA, ^177Lu-Ibu-N-PSMA and ^177Lu-Ibu-DAB-PSMA as well as ^177Lu-PSMA-617 and ^177Lu-PSMA-ALB-56 were investigated using an ultrafiltration assay as previously reported. In short, the PSMA ligands were labeled with ^177Lu at a molar activity of 50 MBq/nmol, diluted in PBS (pH 7.4) to an activity concentration of 10 MBq/500 μL and incubated in mouse or human plasma at 37 °C for 30 min. After incubation, each sample was loaded on a centifree ultrafiltration device (4104 centrifugal filter units; Millipore, 30000 Da nominal molecular weight limit, methylcellulose micropartition membranes) and centrifuged at 2000 rpm for 40 min at 20 °C to allow the separation of the unbound and plasma-bound radioligand fractions. Samples from the loading solution and samples from the filtrate were taken and counted for radioactivity in a γ-counter. The amount of plasma-bound radioligand was calculated as the fraction of radioactivity measured […] relative to the corresponding loading solution (set to 100%). Control experiments were performed with each radioligand by incubation in PBS (pH 7.4) prior to filtration in order to determine the unspecific binding of the radioligands to the filter membrane. The experiments were performed at least three times for each radioligand. […]

[3] = n-octanol/PBS; cited from earlier work
[4] = test system: human plasma proteins; assay: Ultrafiltration assay, binding to human plasma proteins; details: 37 °C, 30 min
Method: as §1

[5] = test system: non-tumor-bearing athymic BALB/c nude mice; assay: In vivo excretion, whole-body activity measurement; details: 4 h p.i.; activity right after injection = 100%
Method: 14. Determination of the in vivo excretion of the radioligands
Methods: In order to determine the retention and excretion of each radioligand, non-tumor-bearing athymic BALB/c nude mice were injected with each radioligand (n = 2−3; per radioligand). The mice were measured for radioactivity immediately after injection and at several time points after injection up to 56 h p.i. (Figure S8). The PSMA ligands were, therefore, labeled at a molar activity of 25 MBq/nmol and diluted in saline containing 0.05% bovine serum albumin (BSA). Mice were intravenously injected with the respective radioligand (25 MBq, 1 nmol, 100 µL) and – after e mptying the urinary bladder – measured in a dose calibrator immediately (t = 0) and at various time points after injection up to 56 h p.i..
The activity measured right after injection was set as 100%. The data points present the average of three mice per radioligand ± standard deviation (SD). […]
to the albumin-binding properties of the incorporated ibuprofen. The ibuprofen-bearing radioligands […]
p-tolyl moiety as stronger albumin binder. […]
excretion patterns for the single radioligands, which was manifested most prominently between 1 h and 4 h p.i. At all measured time points, retention was highest for the radioligand without additional linker entity, 177Lu-Ibu-PSMA. […]
Figure S8. […] The activity measured right after injection was set as 100%. […]

Cc1ccc(CCCC(=O)NCCCC[C@H](NC(=O)CN2CCN(CC(=O)O)CCN(CC(=O)O)CCN(CC(=O)O)CC2)C(=O)NCC2CCC(C(=O)N[C@@H](Cc3ccc4ccccc4c3)C(=O)NCCCC[C@H](NC(=O)N[C@@H](CCC(=O)O)C(=O)O)C(=O)O)CC2)cc1 (some centres unmarked)
Kd [1]: 30 nM
binding to mouse plasma proteins (bound fraction) [2]: 89 ± 2%
logD value [3]: -2.9
binding to human plasma proteins (bound fraction) [4]: 95 ± 1%
body retention of activity [5]: 51%

Reference: paper PMC6993238, “Development of a new class of PSMA radioligands comprising ibuprofen as an albumin-binding entity” (Theranostics, 2020)
